Measurements: patent US20040087629A1, “Tartrate salts of thiazolidinedione derivative” (priority 2003, published 2004)

Details: 40° C./75% Relative Humidity (RH), open exposure, 1 month; product of Example 4

CN(CCOc1ccc(CC2SC(=O)NC2=O)cc1)c1ccccn1.O=C(O)C(O)C(O)C(=O)O [L(+) Tartrate, 5-[4-[2-(N-methyl-N-(2-pyridyl)amino)ethoxy]benzyl]thiazolidine-2,4-dione L-(+)-tartrate]
Degradation (solid state stability): No significant degradation observed
